One test deals with KURAMOCHI
As to the kind of experiment: drug sensitivity score (DSS2) on cancer cell count; higher = more sensitive; extreme values may be limits of the assay. The conditions noted are these: 72 h. The procedure, abridged:
(§1)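 Ovarian cancer cells were cultured either alone or directly mixed 1:1 with lung or skin fibroblasts and plated onto 384-well plates acoustically pre-spotted with 528 approved and investigational compounds at 5 concentrations for 72 h of treatment. After fixation, cells were immunostained for CK8/18 with Hoechst and imaged at 10× across 4 fields to count cancer cells. Responses were fitted with 4-parameter logistic curves, and from these fits a drug sensitivity score was derived in Breeze, with screen quality assessed by Z'.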

Another test relates to OVCAR8. Described as above. Particulars: 72 h. An outline of the steps:
as §1

[1] abbreviates: co-cultured fibroblast: BJHTERT.
Setting [2] is: co-cultured fibroblast: none (monoculture).

For `NCc1ccc(OCCCc2sc(-c3ccc4c(c3)/C(=N/Nc3nc5ccccc5s3)CCC4)nc2C(=O)O)cc1` [WEHI-539], the drug sensitivity score came to 1.9 DSS in the test with KURAMOCHI (setting [1]); 0 DSS in the test on KURAMOCHI (co-cultured fibroblast: WI38); 1.1 DSS in the test with KURAMOCHI (setting [2]); 0 DSS in the test with OVCAR8 (setting [1]); 0.9 DSS with OVCAR8 (co-cultured fibroblast: WI38); 0.1 DSS in the test with OVCAR8 (setting [2]).

These data come from the supplement of paper PMC12420376.
